OPERA 2.9 data: water solubility values

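The OPERA project collected these measurements from public sources as training and test data for property models. A listed value is a point estimate from one report or more. Method and conditions are not stated for these values. The measured form (salt, isomer or mixture) is not always the one drawn. Unmarked limits or estimates from the upstream databases cannot be ruled out.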

Solubility in water is on a log10 molar scale (set defined at 25 °C). Cells with "–" have no entry in this list.

structure (SMILES),name,water solubility (log10 mol/L)
CCNc1nc(=O)nc(NC(C)(C)C)[nH]1,–,-4.47
CC(=O)Oc1ccccc1C(=O)OC[S+](C)[O-] (stereo unspecified),({[2-(Acetyloxy)benzoyl]oxy}methyl)(methyl)sulfaniumolate,-1.782
CCCCC[C@@H]1C(=O)CC[C@H]1C(=O)OC,"Methyl (1R,2S)-3-oxo-2-pentylcyclopentanecarboxylate",-2.572
COC1CC2CC1C1C=CCC21 (stereo unspecified),"4,7-Methano-1H-indene, 3a,4,5,6,7,7a-hexahydro-5-methoxy-",-3.085
O=S(=O)([O-])CCC(F)(F)C(F)(F)C(F)(F)C(F)(F)C(F)(F)C(F)(F)F.[K+],6:2 Fluorotelomer sulfonate potassium salt,-2.135
O=C1CCCCCCCCCCCCCCC1,Cyclohexadecanone,-6.263
COCCOCCCn1c(=O)c2c(N)c3c(=O)c4ccccc4c(=O)c3c(N)c2c1=O,–,-8.265
CCCCCCC(=O)OCC(CC)(COC(=O)CCCCCC)COC(=O)CCCCCC,"1,1,1-Trimethylolpropane triheptanoate",-6.974
COCCN(CCOC)C(=O)COC(=O)c1ccccc1,2-[Bis(2-methoxyethyl)amino]-2-oxoethyl benzoate,-1.072
CCCCCCCC/C=C\CCCCCCCC(=O)OCC(COC(=O)CCCCCCC/C=C\CCCCCCCC)OC(=O)CCCCCCC/C=C\CCCCCCCC,Glyceryl trioleate,-7.248
CC1CCC2CC1([S-])C2(C)C.[Au+] (stereo unspecified),–,-7.865
O=[N+]([O-])c1ccccc1NCCO,"Ethanol, 2-[(2-nitrophenyl)amino]-",-1.993
COC1(C(F)(C(F)(F)F)C(F)(F)F)OC(F)(C(F)(C(F)(F)F)C(F)(F)F)C(F)(F)C1(F)F (stereo unspecified),"2-Methoxyperfluoro(2,5-di(propan-2-yl)oxolane)",-9.113
CCCCCCCCCCCCCCCCCCCCCCOC(=O)c1ccc(O)cc1,Docosyl 4-hydroxybenzoate,-8.048
CCCCCCCOC(=N)O,O-HEPTYL CARBAMATE,-2.62
Cc1cc(C)c(N)c(S(=O)(=O)O)c1,"Benzenesulfonic acid, 2-amino-3,5-dimethyl-",-1.82
CCCc1ccc(-c2cc(F)c(C(F)(F)Oc3cc(F)c(F)c(F)c3)c(F)c2)cc1,–,-6.884
C=CCOC(=O)COC1CCCCC1,2-Propen-1-yl 2-(cyclohexyloxy)acetate,-2.078
CO[C@H]1C[C@H](O[C@@H]2C(C)=CC[C@@H]3C[C@@H](C[C@]4(CC[C@H](C)[C@@H](C5CCCCC5)O4)O3)OC(=O)[C@@H]3C=C(C)/C(=N/O)[C@H]4OCC(=CC=C[C@@H]2C)[C@]43O)O[C@@H](C)[C@@H]1O,Selamectin,-6.25
C/C=C/CC[C@H]1CC[C@H]([C@H]2CC[C@H](CCC)CC2)CC1,–,-5.517
CC1(C)[C@H]2CC[C@]3(C2)[C@H]1C(=O)CCC3(C)C (relative stereo),–,-3.642
O=C(O)[C@@H]1OC(c2ccccc2)O[C@H]1[C@@H]1COC(c2ccccc2)O1 (stereo partly drawn),"2,3:4,5-Di-O-benzylidene-D-arabinoic acid",-2.455
C=CC(=O)NC(C)(C)CS(=O)(=O)[O-].[NH4+],–,0.531
CCCCOCOCCCC,"Butane, 1,1'-[methylenebis(oxy)]bis-",-2.832
CC(C)(O)C(=O)c1ccc(C2(C)CC(C)(C)c3cc(C(=O)C(C)(C)O)ccc32)cc1 (stereo unspecified),–,-5.937
C=C[C@]1(C)C[C@@H](OC(=O)CO)[C@]2(C)[C@H](C)CC[C@]3(CCC(=O)[C@H]32)[C@@H](C)[C@@H]1O,Pleuromutilin,-2.837
CCCCCCOC,"Hexane, 1-methoxy-",-2.245
CC1=NN(c2cccc(S(=O)(=O)O)c2)C(=O)C1,–,-1.772
CCCCOc1ccc(C(=O)CCN2CCCCC2)cc1,Dyclonine,-3.799
C[C@]12CC[C@H]3[C@@H]([C@H]4C[C@H]4[C@]4(O)C[C@@H](O)CC[C@]34C)[C@@H]1[C@@H]1C[C@@H]1[C@@]2(O)C#CCO,–,-2.46
NC(=O)c1ccccc1[N+](=O)[O-],2-Nitrobenzamide,-2.01
CC(=O)CC(=O)CC(C)C,"2,4-Heptanedione, 6-methyl-",-1.6
CCCCCCCCCCCCCCCCOC(=O)CC(O)(CC(=O)OCCCCCCCCCCCCCCCC)C(=O)OCCCCCCCCCCCCCCCC,Trihexadecyl citrate,-10.1
CC(=O)C(N=Nc1cc(C(=O)Nc2cc(Cl)ccc2C)ccc1Cl)C(=O)Nc1cc(C)c(NC(=O)C(N=Nc2cc(C(=O)Nc3cc(Cl)ccc3C)ccc2Cl)C(C)=O)cc1C (stereo unspecified),C.I. Pigment Yellow 95,-7.263
CC=C1CC2CC1C1C3C=CC(C3)C21 (stereo unspecified),–,-6.066
Nc1ccc(N=Nc2cccc(N=Nc3ccc(N)cc3N)c2)c(N)c1,C.I. Solvent Brown 41,-4.197
Cc1ccc(NC(=O)N(C)C)cc1,"Urea, N,N-dimethyl-N'-(4-methylphenyl)-",-1.64
O=Cc1ccc(B(O)O)cc1,4-Formylphenylboronic acid,-2.267
CCCCOC(=O)NC1CCC(CC2CCC(NC(=O)OCCCC)CC2)CC1 (stereo unspecified),"4,4'-Methylenebis(N-butoxycarbonylcyclohexanamine)",-6.722
C1=NCc2ccccc2N1,"3,4-Dihydroquinazoline",-0.723
CCO[Si](CC(C)C)(OCC)OCC,Triethoxy(2-methylpropyl)silane,-3.017
O=C(O)CSC(c1ccccc1)(c1ccccc1)c1ccccc1,2-(tritylthio)acetic acid,-4.302
CC(CO)CC(C)c1ccccc1 (stereo unspecified),2-Methyl-4-phenylpentanol,-2.348
BrC=Cc1ccccc1,(2-Bromovinyl)benzene,-3.37
CCC(=O)NC(=O)CC,Dipropionamide,-1.713
CCC(Oc1ccc(F)c(C(F)(F)F)c1)C(O)=NCc1ccccc1 (stereo unspecified),Beflubutamid,-5.03
CO[C@]1(C)CC[C@@]23C[C@@H]1C(C)(C)[C@@H]2CC[C@H]3C (stereo in doubt),–,-4.74
CCOc1ccccc1NC(=O)c1cc2ccccc2cc1O,3-Hydroxy-2-naphtho-o-phenetidide,-5.187
O=C1Cc2cccc(F)c2N1,7-Fluorooxindole,-2.225
Cc1ccnc(NC(=O)c2cnccn2)n1,N-(4-Methylpyrimidin-2-yl)pyrazine-2-carboxamide,-0.731
CC(COC(=O)c1ccccc1)OC(=O)c1ccccc1 (stereo unspecified),Propylene glycol dibenzoate,-4.567
CC(C)CCC1CCC(O)CC1 (stereo unspecified),"Cyclohexanol, 4-(3-methylbutyl)-",-3.226
CC(CC(C)(C)C1CCCCC1)C1CCCCC1 (stereo unspecified),"Cyclohexane, 1,1'-(1,1,3-trimethyl-1,3-propanediyl)bis-",-6.7

Values as listed in the OPERA 2.9 repository of K. Mansouri.